Tests used:
IRAK1 = IRAK1 (Homo sapiens (Human), UniProt P51617); test: Kd kinase binding assay IRAK1
PDGFRβ = PDGFRβ (Homo sapiens (Human), UniProt P09619); test: biochemical; details: 10 μM ATP

Chains of the proteins cited; added tags and fusions are not shown. Residues count along the entry.
UniProt P09619, 33-1106 limits assumed: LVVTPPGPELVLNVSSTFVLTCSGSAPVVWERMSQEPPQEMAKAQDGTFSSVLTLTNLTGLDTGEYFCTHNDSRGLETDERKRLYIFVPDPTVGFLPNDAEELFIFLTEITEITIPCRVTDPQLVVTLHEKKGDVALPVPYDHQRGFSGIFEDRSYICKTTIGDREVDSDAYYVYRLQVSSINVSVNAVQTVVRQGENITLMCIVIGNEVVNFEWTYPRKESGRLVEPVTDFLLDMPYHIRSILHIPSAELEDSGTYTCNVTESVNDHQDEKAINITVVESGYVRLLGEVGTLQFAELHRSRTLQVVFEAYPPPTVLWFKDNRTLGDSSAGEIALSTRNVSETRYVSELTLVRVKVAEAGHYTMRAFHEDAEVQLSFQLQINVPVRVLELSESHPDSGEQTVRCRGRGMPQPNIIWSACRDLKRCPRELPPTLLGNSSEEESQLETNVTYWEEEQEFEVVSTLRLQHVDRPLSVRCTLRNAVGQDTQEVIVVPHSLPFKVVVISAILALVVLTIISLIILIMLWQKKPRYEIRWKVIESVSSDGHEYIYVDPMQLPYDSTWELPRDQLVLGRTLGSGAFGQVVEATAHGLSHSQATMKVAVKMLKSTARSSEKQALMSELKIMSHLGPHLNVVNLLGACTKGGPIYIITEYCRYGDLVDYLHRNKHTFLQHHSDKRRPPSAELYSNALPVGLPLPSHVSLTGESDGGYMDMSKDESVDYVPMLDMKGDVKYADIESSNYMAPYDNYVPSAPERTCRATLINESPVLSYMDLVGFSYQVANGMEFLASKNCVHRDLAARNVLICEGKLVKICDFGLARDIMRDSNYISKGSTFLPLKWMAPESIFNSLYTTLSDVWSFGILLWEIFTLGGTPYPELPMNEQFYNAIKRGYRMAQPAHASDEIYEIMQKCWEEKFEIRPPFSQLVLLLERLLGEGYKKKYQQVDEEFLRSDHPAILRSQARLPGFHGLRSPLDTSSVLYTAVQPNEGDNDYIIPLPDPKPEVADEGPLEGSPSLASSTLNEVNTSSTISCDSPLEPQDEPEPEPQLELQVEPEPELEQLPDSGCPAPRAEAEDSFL

With COc1cc2ncc(-c3cccc(NC4CCNC4)n3)n2cc1-c1cccnc1 (stereo not drawn) [Compound I-22, 6-(7-methoxy-6-(pyridin-3-yl)imidazo[1,2-a]pyridin-3-yl)-N-(pyrrolidin-3-yl)pyridin-2-amine] the Kd (IRAK1) was 3.5 nM, the IC50 (PDGFRβ; IC50 PDGFRb, 10-dose IC50 mode) was 4.19 nM and the IC50 (PDGFRβ; IC50 PDGFRβ) was 3.57 nM.

Source: US11254667B2 (priority 2016, dated 2022)
